In the assay the test system is P388 leukemia. Particulars: mouse, in vivo.

Each structure is given as a SMILES string.

In the case of `CC[C@@]1(O)C[C@H](O[C@H]2C[C@H](N3CCOCC3)[C@H](O)[C@H](C)O2)c2c(O)c3c(c(O)c2[C@H]1O)C(=O)c1cccc(O)c1C3=O` [M-R20X2, 3'-deamino-3'-(4-morpholinyl)-13-deoxo-10-hydroxycarminomycin], the “antitumor activity in comparison with M-R20X” value is on record as “remarkably high antitumor activity in comparison with 3'-deamino-3'-(4-morpholinyl)-13-deoxocarminomycin”.

For the origin of these results see patent US4877870A, “Process for producing 10-hydroxyanthracyclines” (Kirin Beer Kabushiki Kaisha, priority 1986, dated 1989).
